From PubChem BioAssay
Nrf2 inh = Nrf2 pathway inhibition; AID 504444; A549 ARE-Fluc reporter, luciferase luminescence, 18-24 h; Potency, µM (titrated, usually from 46 µM), actives largely listed as inhibitors; 360,000 tested, 2.1% active; further: nearly all actives have a fitted effect of over 60% in size
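Two sequential reads on A549 ARE_Fluc cells exposed to compound for 18-24 h: a CellTiter-Fluor fluorescence read for viability, then a luciferase luminescence read for Nrf2/ARE activity.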
Mito fusion yeast = blocks mitochondrial division or promotes mitochondrial fusion. S. cerevisiae fusion-defective mutant growth rescue, CellTiterGlo 48 h. 320,000 tested, 0.23% active. Potency, µM (doses to about 46.1 µM), most hits filed as activators; further: nearly all actives have a fitted effect of over 45% in size
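Compounds are tested for their ability to restore growth of mitochondrial fusion-defective yeast strains at non-permissive 37C in YPEG medium over 48 hours. Viability is quantified by luciferase luminescence.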
A549 tox = A549 cytotoxicity, counter-screen for Nrf2 inhibitors. A549 ARE-Fluc cells, CellTiter-Fluor viability, 18-24 h. Potency, µM (titrated, usually from 46 µM), usual class: inhibitors. 390,000 tested, 0.16% active
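A549 ARE-Fluc cells in 5% FBS OPTI-MEM, 5000 cells/well, rested 2 h then exposed to compounds in concentration-response for 18-24 h at 37 °C. Viability by CellTiter-Fluor fluorescence (Ex 405/Em 525) after 30 min; luciferase luminescence (BugLite, 15 min, RT) read afterwards.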
GRP78 ERSR act = ER stress response induction in glioma; U87-MG GRP78 promoter luciferase reporter, 16 h; Potency, µM, actives largely listed as activators; 420,000 tested, 0.02% active; further: series mostly up to about 76 µM; nearly all actives have a fitted effect of over 35% in size
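Stably transfected U87-MG human glioma cells carrying a GRP78-based luminescent sensor were seeded at 1000 cells/well, pin-dosed with compounds and incubated 16 h. Luciferase reagent was then added, and end-point luminescence was read after 10 min at room temperature.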
miR-21 reporter = raises the signal of a miR-21 reporter | Potency, µM (doses to about 38.3 µM) | HeLa miR-21 FLuc reporter, luciferase, 48 h | AID 2288 | 340,000 tested, under 10 active; active = well fitted rising curve with a large enough effect; inconclusive = small, poorly fitted or top-dose-only effect; inactive = no such curve, though single readings can be large or run the other way;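 also: miR-21 action dims this reporter so a rising signal means less miR-21 action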
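HeLa cells endogenously expressing miR-21, stably carrying CMV-driven firefly luciferase with a downstream miR-21 binding site, 2000 cells/well. Titrations up to approximately 40 uM, 48 hours; luciferase luminescence read.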
Nrf2 activator = activators of Nrf2 (ARE) signaling. AREc32 ARE-luciferase reporter (MCF7-derived line), luminescence, 24 h. Potency, µM (doses to about 46.1 µM), actives largely listed as activators. 410,000 tested, 0.31% active. AID 624171; further: nearly all actives have a fitted effect of over 65% in size
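ARE-driven firefly luciferase activity in AREc32 cells measured after a 24 hr compound exposure at 37 deg C, using Steady-Glo reagent and a 30 min room-temperature hold.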
Numbers stand for hits; . = inactive; ? = inconclusive; / = not tested or not shown. Hits are enriched below; roughly 2.3% of the tested compounds scored in any of these assays. Unless noted, the call rests on the fitted dose curve; in most records, active means well fitted curve in the direction sought with a large enough effect; inconclusive means small, poorly fitted or top-dose-only effect, or another doubt; inactive means no such curve, though single readings can be large; an effect the other way counts as inactive or inconclusive.

SMILES	Nrf2 inh	Mito fusion yeast	A549 tox	GRP78 ERSR act	miR-21 reporter	Nrf2 activator
Cc1ccc(N(C(=O)c2csnn2)C(C(=O)NCc2ccccc2)c2cccnc2)cc1 (stereo not drawn)	.	.	.	.	.	.
CCOC(=O)N1CCC(NC(=O)CSCc2nc(-c3cccc(OC)c3)oc2C)CC1	18µM	.	.	.	.	.
COc1cccc(-c2nc(CS(=O)(=O)CC(=O)NC3CCC(C)CC3)c(C)o2)c1 (stereo not drawn)	?	?	.	.	.	.
COc1cccc(-c2nc(CS(=O)(=O)CC(=O)NC3CCCC3)c(C)o2)c1	21µM	.	.	.	.	.
COC(=O)C(C)Sc1ccc2nnc(-c3ccccc3)n2n1 (stereo not drawn)	.	.	?	.	.	.
Cc1ccc(OCC(=O)Nc2ccncc2)cc1C	/	/	/	.	/	.
CCc1nonc1NC(=O)COc1cc(C)c(Cl)c(C)c1	.	11µM	.	.	.	.
Cc1cc(OC(C)C(=O)Nc2ccncc2)ccc1Cl (stereo not drawn)	18µM	.	.	.	.	.
Cc1cc(OCC(=O)Nc2ccncc2)cc(C)c1Cl	13µM	.	.	.	.	.
CC(C)Cc1nnc(NC(=O)CSc2nc(O)c(-c3ccccc3)c(=O)[nH]2)s1	.	.	.	.	.	.
O=C(N/N=C/c1c[nH]c2ccccc12)c1cc(-c2ccc(-c3ccccc3)cc2)n[nH]1	?	.	18µM	.	.	.
CC(C)c1ccc(C(=O)Nc2ccc(CN3CCOCC3)cc2)cc1	?	.	.	.	.	.
COc1ccc(/C=C/C(=O)Nc2ccc(N3CCOCC3)cc2)cc1	.	.	.	.	.	.
O=C(/C=C/c1ccco1)Nc1ccc(S(=O)(=O)N2CCOCC2)cc1	.	.	.	.	.	11µM
O=C(/C=C/c1ccc(Cl)cc1)Nc1ccc(CN2CCOCC2)cc1	21µM	.	?	.	.	.
CCN(CC)S(=O)(=O)c1ccc(/C=C/C(=O)Nc2ccc(N3CCOCC3)cc2)cc1	16µM	.	.	.	?	.
CC(C)c1ccc(/C=C/C(=O)Nc2ccc(CN3CCOCC3)cc2)cc1	23µM	.	?	.	?	.
O=C(/C=C/c1ccc(F)cc1)Nc1ccc(S(=O)(=O)N2CCOCC2)cc1	?	.	.	.	.	.
O=C(CSc1nnc(Cn2nnc3ccccc32)o1)N(Cc1ccc(F)cc1)c1ccccc1	5.8µM	.	?	.	.	.
COc1ccc(CN(C(=O)CSc2nnc(-c3c[nH]c4ccccc34)o2)c2ccc(F)cc2)cc1OC	12µM	?	?	.	.	.
Cc1cc(NC(=O)c2ocnc2C)no1	/	.	.	.	.	.
CSc1ccc(C(=S)N2CCCC2)cc1	.	.	.	.	.	.
O=C(Nc1ncnc2sc3c(c12)CCC3)c1ccco1	.	.	.	.	.	0.79µM
O=C(Nc1ncnc2sc3c(c12)CCCCC3)c1ccccc1	.	.	.	.	.	.
COc1ccc(-n2nc(C(=O)NCC(=O)Nc3cccc(Cl)c3)c3ccccc3c2=O)cc1OC	15µM	.	.	.	.	.
SMILES	Nrf2 inh	Mito fusion yeast	A549 tox	GRP78 ERSR act	miR-21 reporter	Nrf2 activator
Cc1nc2ccccc2c2oc(C(=O)NCC3COc4ccccc4O3)cc12 (stereo not drawn)	16µM	.	.	.	.	.
CCN1CCCC1CNC(=O)c1cc2c(C)nc3ccccc3c2o1 (stereo not drawn)	.	.	.	.	.	.
CCc1ccc(CNC(=O)c2cc3c(C)nc4ccccc4c3o2)cc1	15µM	.	.	.	.	.
CCOc1cccc2c1OC(c1cc(OC)c(OC)c(OC)c1)N1N=C(c3ccc(C)o3)CC21 (stereo not drawn)	?	.	.	?	.	13µM
COc1ccc(C2CC(c3ccc(C)o3)=NN2C(C)=O)cc1 (stereo not drawn)	?	.	.	.	.	.
CCCCn1c(N)c(N(CC(C)C)C(=O)CCCc2cccs2)c(=O)[nH]c1=O	.	.	.	.	.	.
COc1ccc(OCc2nnc(-c3ccccc3)o2)cc1	?	/	.	.	.	.
COc1cc2ccccc2cc1-c1nnc(COc2ccccc2)o1	.	10µM	.	.	.	.
COc1cc(-c2nnc(COc3ccc4cc(Br)ccc4c3)o2)cc(OC)c1OC	.	.	.	.	.	.
COc1ccc(-c2nnc(COc3ccc4ccccc4c3)o2)cc1OC	23µM	.	/	.	.	.
CCCCN(CCCC)CCNC(=O)c1cn(CC)c2ccc(S(=O)(=O)N3CCCC3)cc2c1=O	.	.	.	.	.	.
CNc1oc(-c2ccc(F)cc2)nc1S(=O)(=O)c1ccccc1	.	.	.	.	.	.
CC(C)CS(=O)(=O)c1oc(-c2ccc(F)cc2)nc1S(=O)(=O)c1ccccc1	23µM	/	?	.	?	.
CCNc1nc(NC(C)(C)C)nc(N2CCCC2)n1	.	.	?	.	.	.
CC(C)(C)Nc1nc(N2CCCC2)nc(N2CCCC2)n1	?	.	15µM	.	.	.
CC1CN(S(=O)(=O)c2cccc(C(=O)Nc3ccc4c(c3)CCC4)c2)CC(C)O1 (stereo not drawn)	23µM	.	.	.	.	.
Cc1cccc2[nH]c3c(N4CC=C(c5ccc(F)cc5)CC4)ncnc3c12	21µM	.	.	.	.	.
CC(=O)Nc1c(O)c2cccc3c2n(c1=O)CCC3	.	/	.	.	/	.
CC1CCc2onc(C(=O)Nc3ccc(Cl)cc3)c2C1 (stereo not drawn)	.	/	.	.	.	.
CC1CCc2onc(C(=O)N3CCN(c4ccc(Cl)cc4)CC3)c2C1 (stereo not drawn)	21µM	/	.	.	.	.
C=CCn1c(SCc2ccc(F)cc2)nnc1-c1sc2nc(C)cc(C)c2c1N	.	.	.	.	.	.
COCCNC(=S)N(CCc1c(C)[nH]c2ccc(C)cc12)Cc1cc(OC)c(OC)c(OC)c1	.	.	.	.	.	.
CCNC(=S)N(CCc1c(C)[nH]c2ccc(C)cc12)Cc1cc(OC)c(OC)c(OC)c1	18µM	.	.	.	.	.
CCOc1ccc(NC(=O)c2c(NC(=O)c3cccc(C)c3)sc3c2CCC3)cc1	.	/	.	.	.	.
C=CCc1c(C)nc2ccc(C(=O)OCC)cc2c1Cl	?	.	.	.	.	.
CCOc1ccc(C(=O)OCC(=O)Nc2nc(OC)cc(OC)n2)cc1OCC	.	.	.	.	.	.
OCCN(Cc1cccnc1)Cc1ccccn1	.	/	21µM	.	/	.
CCCS(=O)(=O)NC(=O)C1(C)CCCN(C(=O)c2ccccc2)C1 (stereo not drawn)	/	/	/	.	/	.
